The record followed here is patent publication US20150335679A1, “Methods and Compositions for Treating Malignancies with Dendritic Cells” (Kiromic, LLC, priority 2014, published 2015).

Where no end group is shown, it is not given here.

The data set deals with autologous pulsed dendritic cells. In words: In vitro LDH cytotoxicity assay: CTL primed by matured/pulsed DC against autologous pulsed DC. Conditions: DC pulsed with the peptide; CTL after 10 days co-culture with autologous PBL; effector:target 40 to 20:1; FIG. 5.
As for ILDSSEEDK [SP17(103-111)], the “induction of antigen-specific cytotoxic lymphocytes (specific lysis of TAPA-presenting DC)” value (“induction” for short) is “successfully induced the maturation and activation of antigen-specific cytotoxic lymphocytes”.

Regarding FTEEIEWLK [Ropporin-1(113-121)], the “induction” value is “successfully induced the maturation and activation of antigen-specific cytotoxic lymphocytes”.

For the sequence ATEKSVKTK [PTTG1(70-78)], the “induction” value was “successfully induced the maturation and activation of antigen-specific cytotoxic lymphocytes”.

Consider YADQVNIDY [AKAP-4(150-158)], for which the “induction” value was “successfully induced the maturation and activation of antigen-specific cytotoxic lymphocytes”.
